# Binding of CDR-mutated scFvs to a peptide of the spike HR2 region

From the AlphaSeq antibody data of Engelhart et al. 2022 (doi:10.1038/s41597-022-01779-4), copy in the FLAb collection.

Target peptide (SARS-CoV-2 spike, HR2 region): PDVDLGDISGINAS

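Phage display of a naive human antibody library on the peptide gave the parent. Variants in AAYL49 differ from the parent at up to three CDR positions; double and triple changes were sampled at random. AlphaSeq pools MATa yeast showing the antibodies with MATalpha yeast showing the peptide. Binding brings cells together so that they mate, and sequencing counts the barcode pairs among the diploids. Scores were corrected for input abundance and mapped to Kd with protein pairs of known affinity run in the same pool. Each pool was mated in three replicate cultures.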

The variants keep the light chain, the linker and the frameworks of Ab-14 (scFv order VH, three GGGGS repeats, VL).
VH: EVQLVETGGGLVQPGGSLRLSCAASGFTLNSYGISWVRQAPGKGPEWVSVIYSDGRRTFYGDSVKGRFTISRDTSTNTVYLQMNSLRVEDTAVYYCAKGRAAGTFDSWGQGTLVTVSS
VL: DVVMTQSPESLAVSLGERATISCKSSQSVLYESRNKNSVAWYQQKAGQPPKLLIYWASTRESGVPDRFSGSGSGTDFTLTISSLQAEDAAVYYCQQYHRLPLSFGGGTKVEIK

Each variant is given by its three heavy chain CDRs, as the data file delimits them; those of the parent are GFTLNSYGIS, VIYSDGRRTFYGDSVK, GRAAGTFDS.
Affinities are written as log10 Kd with Kd in nM; a lower number is a better binder.
Where no diploid with the target was found in that replicate, the entry reads "n.d.": below detection, most likely a poor binder, though not proof of it.
Nonspecific signal, from three strains lacking the peptide, appeared in 15% of pairings of library AAYL49, centred on 4.06 (5% of these signals below 2.83); values are not corrected for it. The control count says in how many pairings with the empty strains this scFv gave a signal, with their mean in brackets.

{"CDR-H1": "GFTLNSYGIS", "CDR-H2": "TIYSDGRRTFYTDSVK", "CDR-H3": "HRAAGTFDS", "log10 Kd, replicates": "6.04 3.33 4.51", "control signals": "5/9 (4.64)"}
{"CDR-H1": "GFTLYSYGIS", "CDR-H2": "VIYHDGRRPFYGDSVK", "CDR-H3": "GRAAGTFDS", "log10 Kd, replicates": "n.d. n.d. n.d.", "control signals": "2/9 (3.82)"}
{"CDR-H1": "GCTLNSYGIS", "CDR-H2": "VIYSDGRRTFYGDSVK", "CDR-H3": "GRAAGTFDS", "log10 Kd, replicates": "3.36 2.88 4.04", "control signals": "1/9 (4.25)"}
{"CDR-H1": "VFMLNSYGIS", "CDR-H2": "VIYSDGRRTFYGDSVK", "CDR-H3": "GRAAGTFDS", "log10 Kd, replicates": "n.d. n.d. n.d.", "control signals": "0/9"}
{"CDR-H1": "GFTINSYGIS", "CDR-H2": "VIYSDGRRTFKGDSVK", "CDR-H3": "DRAAGTFDS", "log10 Kd, replicates": "n.d. n.d. n.d.", "control signals": "0/9"}
{"CDR-H1": "GWTLNSYGIS", "CDR-H2": "VIYSDGRRTFYGDSVK", "CDR-H3": "GRAAGTEVS", "log10 Kd, replicates": "n.d. n.d. 2.47", "control signals": "1/9 (3.99)"}
{"CDR-H1": "GFTLNSYGGS", "CDR-H2": "VDYSDGIRTFYGDSVK", "CDR-H3": "GRAAGTFDS", "log10 Kd, replicates": "n.d. n.d. n.d.", "control signals": "2/9 (4.07)"}
{"CDR-H1": "GKTPNSYGIS", "CDR-H2": "VIYSDGRRTFYGDSVK", "CDR-H3": "GRWAGTFDS", "log10 Kd, replicates": "4.58 3.11 n.d.", "control signals": "0/9"}
{"CDR-H1": "GFTLNSYGIS", "CDR-H2": "VRYSDGRRWFYGDSVK", "CDR-H3": "NRAAGTFDS", "log10 Kd, replicates": "n.d. n.d. n.d.", "control signals": "0/9"}
{"CDR-H1": "GFTLCSYGIS", "CDR-H2": "VIYSDGRRTFCGDSVK", "CDR-H3": "GRAAGTFMS", "log10 Kd, replicates": "4.65 3.44 n.d.", "control signals": "3/9 (3.97)"}
{"CDR-H1": "GFTLNSYGPS", "CDR-H2": "VIYSDGRRTFYGDSVK", "CDR-H3": "QRAIGTFDS", "log10 Kd, replicates": "n.d. n.d. n.d.", "control signals": "0/9"}
{"CDR-H1": "GFTLNSYPIS", "CDR-H2": "EIASDGRRTFYGDSVK", "CDR-H3": "GRAAGTFDS", "log10 Kd, replicates": "n.d. 4.24 4.00", "control signals": "5/9 (4.34)"}
{"CDR-H1": "GFTCNSYGIS", "CDR-H2": "VIYSDGDRTFKGDSVK", "CDR-H3": "GRAAGTFDS", "log10 Kd, replicates": "n.d. n.d. n.d.", "control signals": "1/9 (4.72)"}
{"CDR-H1": "GFTLNSYHIS", "CDR-H2": "VIYSDGRQTFYGDSVK", "CDR-H3": "GRHAGTFDS", "log10 Kd, replicates": "n.d. n.d. n.d.", "control signals": "0/9"}
{"CDR-H1": "GFTLNSYGIS", "CDR-H2": "VIYSDSRRTFYGDIVK", "CDR-H3": "SRAAGTFDS", "log10 Kd, replicates": "4.59 n.d. n.d.", "control signals": "2/9 (3.56)"}
{"CDR-H1": "GFTLNSYGIS", "CDR-H2": "VIYSDGRRTIYGDSVK", "CDR-H3": "GRAAGTFLP", "log10 Kd, replicates": "3.23 2.88 3.63", "control signals": "1/9 (4.20)"}
{"CDR-H1": "GFTLNSIGIS", "CDR-H2": "VIYSDGRRTFYGDGVK", "CDR-H3": "GRAAGTFDL", "log10 Kd, replicates": "n.d. n.d. n.d.", "control signals": "0/9"}
{"CDR-H1": "GFTLNSYGIS", "CDR-H2": "TIYSDGRRTFRGDSVK", "CDR-H3": "GRAATTFDS", "log10 Kd, replicates": "n.d. n.d. n.d.", "control signals": "2/9 (3.82)"}
{"CDR-H1": "GFTLNSYGIS", "CDR-H2": "VIYSDGRRTFWGDSKK", "CDR-H3": "GRAAMTFDS", "log10 Kd, replicates": "n.d. 4.39 n.d.", "control signals": "1/9 (2.67)"}
{"CDR-H1": "GFTLNSYGIS", "CDR-H2": "VNYSDGRRTCYGDSVK", "CDR-H3": "KRAAGTFDS", "log10 Kd, replicates": "4.73 n.d. n.d.", "control signals": "1/9 (4.06)"}
{"CDR-H1": "GCPLHSYGIS", "CDR-H2": "VIYSDGRRTFYGDSVK", "CDR-H3": "GRAAGTFDS", "log10 Kd, replicates": "3.89 n.d. n.d.", "control signals": "1/9 (4.16)"}
{"CDR-H1": "GFTLNSLGIS", "CDR-H2": "VPYSDWRRTFYGDSVK", "CDR-H3": "GRAAGTFDS", "log10 Kd, replicates": "n.d. 3.09 n.d.", "control signals": "1/9 (3.79)"}
{"CDR-H1": "GFTLNSYLIS", "CDR-H2": "VIYSDGRRTMYGDSVY", "CDR-H3": "GRAAGTFDS", "log10 Kd, replicates": "n.d. 3.69 n.d.", "control signals": "0/9"}
{"CDR-H1": "GFTLNSYGIS", "CDR-H2": "VIDSDGRRTFYGDSVK", "CDR-H3": "GEMAGTFDS", "log10 Kd, replicates": "n.d. n.d. n.d.", "control signals": "0/9"}

Repeated from above, the 2 best binders with a signal in all replicates:

{"CDR-H1": "GFTLNSYGIS", "CDR-H2": "VIYSDGRRTIYGDSVK", "CDR-H3": "GRAAGTFLP", "log10 Kd, replicates": "3.23 2.88 3.63", "control signals": "1/9 (4.20)"}
{"CDR-H1": "GCTLNSYGIS", "CDR-H2": "VIYSDGRRTFYGDSVK", "CDR-H3": "GRAAGTFDS", "log10 Kd, replicates": "3.36 2.88 4.04", "control signals": "1/9 (4.25)"}